From patent US8318807B2 (Laurus Labs Private Limited, priority 2010, dated 2012)

Key:
[1] = Physical stability at elevated temperature and/or relative humidity, analysed by XRPD; format: physicochemical
Procedure: Physical stability was evaluated at approximately 40° C., 60° C., 25° C./75% RH, 25° C./98% RH, and 40° C./75% RH and XRPD was used to detect dissociation or form conversion. Vials of each cocrystal were subjected to each condition for durations of two weeks, one month, and two months. Upon completion of the duration allowed, the samples were immediately analyzed by XRPD.

[2] = Physical stability upon slurrying in water; format: physicochemical; conditions: three days
Text: […]. […] […]. […]

Results (by XRPD) ([1]; 25° C./75% RH, 2 weeks): cocrystal 4
Results (by XRPD) ([1]; 25° C./75% RH, 4 weeks): cocrystal 4
Results (by XRPD) ([1]; 25° C./75% RH, 8 weeks): cocrystal 4
Results (by XRPD) ([1]; 25° C./98% RH, 2 weeks): cocrystal 4
Results (by XRPD) ([1]; 25° C./98% RH, 4 weeks): cocrystal 4
Results (by XRPD) ([1]; 25° C./98% RH, 8 weeks): cocrystal 4
Results (by XRPD) ([1]; 40° C., 2 weeks): cocrystal 4
Results (by XRPD) ([1]; 40° C., 4 weeks): cocrystal 4
Results (by XRPD) ([1]; 40° C., 8 weeks): cocrystal 4
Results (by XRPD) ([1]; 40° C./75% RH, 2 weeks): cocrystal 4
Results (by XRPD) ([1]; 40° C./75% RH, 4 weeks): cocrystal 4
Results (by XRPD) ([1]; 40° C./75% RH, 8 weeks): cocrystal 4
Results (by XRPD) ([1]; 60° C., 2 weeks): cocrystal 4
Results (by XRPD) ([1]; 60° C., 4 weeks): cocrystal 4
Results (by XRPD) ([1]; 60° C., 8 weeks): cocrystal 4
Behaviour upon slurrying in water [2]: precipitation of pterostilbene
Substance: pterostilbene:piperazine [cocrystal 4]
